In patent US20260097126A1, “PHARMACEUTICAL FORMULATIONS AND METHODS FOR THE TREATMENT OF METABOLIC AND LIVER DISORDERS” (priority 2022, published 2026):

Tested on: mice fed a Gubra amylin NASH (GAN) diet
Assay: Biological effects in GAN diet-induced NASH mice
Assay type: in vivo
Conditions: after two weeks
Procedure: NASH was induced in mice by feeding mice a Gubra amylin NASH (GAN) diet as described in Boland et al. World J Gastroenterol. 2019, 25(33): 4904-4920. One week prior to administration of a first dose of compounds, the mice were weighed and randomized, and their food intake was measured. Mice were randomly assigned to dosing groups, with twelve mice per group. […] Compound dose titration (nmol/kg): 0.6 (day 0), 1.2 (day 1), 2.4 (day 2), 4.8 (day 3), 4.8 (day 4), 12 (day 5), 30.0 (from day 6).
After two weeks, animals were sacrificed. Plasma enzymes (P-ALT (alanine aminotransferase) and P-AST (aspartate aminotransferase)), total plasma triglycerides, and total plasma cholesterol were measured, and terminal necropsy of each liver was carried out, determining relative liver weight as a percentage of body weight, assaying total liver biochemistry including total liver triglycerides, plasma insulin and total liver cholesterol, as well as histological evaluation of Galectin-3, and alpha-smooth muscle actin.

tirzepatide
Gal-3 Relative (liver Galectin-3, histological quantitative assessment): 6.7 ± 0.5 percent fractional area
α-SMA Relative (liver alpha-smooth muscle actin, histological quantitative assessment): 5.3 ± 0.8 percent fractional area
TG Relative (liver triglycerides): 42 ± 6 mg per/g liver
